# Values quoted from earlier work in patent US9814778B2, “Ionically crosslinked polyelectrolytes as underwater adhesives as controlled release vehicles” (The University of Toledo, priority 2014, dated 2017).
# Conditions: in solution; cited from earlier work
substance,measurement,value
pyrophosphate [PPi],"pKa,2",2.3
same,"pKa,3",6.6
same,"pKa,4",9.3
